The test concerns Candida albicans (ATCC 10231). The test is described as follows: Minimum Inhibitory Concentration (MIC) against yeast, broth dilution. The format is cell-based. Conditions: ATCC10231, 20 h, read-out: MIC Candida albicans (ATCC 10231).

Molecules are shown by their SMILES.

On to `COC(=O)c1cc2cc(OCc3ccccc3)ccc2n1CCCCCCCCC[n+]1ccccc1` [Compound 230], for which the MIC was 0.78 µg/mL.

The record behind these values is patent US6673827B1, “Methods of treating fungal infections with inhibitors of NAD synthetase enzyme” (priority 1999, dated 2004).
